For one compound, testosterone level results are on record in patent publication US20170007620A1, “Method of replenishing steroid hormones in neutered mammals comprising administration of dehydroepiandrosterone (DHEA) and specific metabolites in order to increase steroid hormone levels from those of neutered mammals associated with high cancer risk, to steroid hormone levels of gonadally-intact …” (priority 2015, published 2017).

Each structure is given as a SMILES string.

The assay concerns testosterone. The assay can be described thus: Serum testosterone in neutered male dogs before and after DHEA-mediated EGSS (FIG. 2). The following applies: DHEA 10 mg/kg p.o.

For the compound `C[C@]12CC[C@H](O)CC1=CC[C@@H]1[C@@H]2CC[C@]2(C)C(=O)CC[C@@H]12` [DHEA, Dehydroepiandrosterone], the testosterone level entry is reported as “increases”.
